The results in this text go back to patent US10155802B2, “Locally-active anticoagulants and anti-inflammatory agents” (priority 2011, dated 2018).

This assay deals with T1, Human α-thrombin (Homo sapiens, UniProt P00734).
T1 construct: Human α-thrombin was purchased from Haemotologic Technologies, Inc., VT, USA; purchased Haemotologic Technologies, Inc., VT, USA
Put plainly: Thrombin inhibition constants of monovalent active-site moieties and TWE1 (method not described). It counts as biochemical. The settings on record: monovalent binding moieties for the active site of thrombin.

The compound `CC1CNc2c(cccc2S(=O)(=O)N[C@@H](CCCNC(=N)N)C(=O)N2CC[C@@H](C)C[C@@H]2C(=O)O)C1` (stereo partly shown) [Argatroban, reference compound] came in with a Ki of 2 ± 0.2 nM.
